CycPeptMPDB entries from one study

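Conditions beyond the assay type are not listed; see the original paper. Other peptides of the study may be missing here. Peptides that the database sets to -10, its floor, are left out.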

PAMPA measures passive passage through an artificial lipid membrane. Values are log10 P with P in cm/s, so -5 is more permeable than -7.

The entry for CC(C)C[C@@H]1NC(=O)[C@@H]2CCCN2C(=O)[C@@H](CC(C)C)NC(=O)[C@@H](CC(C)C)N(C)C(=O)[C@@H](C)N(C)C(=O)[C@@H]2CCCN2C(=O)[C@H](Cc2ccccc2)NC1=O lists PAMPA -5.86 (log10 cm/s). Listed for CC(C)C[C@@H]1NC(=O)[C@H]2CCCN2C(=O)[C@H](CC(C)C)N(C)C(=O)[C@H](CC(C)C)NC(=O)[C@@H](C)N(C)C(=O)[C@H](Cc2ccccc2)NC1=O: PAMPA -5.29 (log10 cm/s). Listed for CC(C)C[C@@H]1C(=O)N2CCC[C@@H]2C(=O)N[C@H](CC(C)C)C(=O)N[C@@H](Cc2ccccc2)C(=O)N2CCC[C@@H]2C(=O)N(C)[C@H](C)C(=O)N(Cc2ccccc2)CC(=O)N1C: PAMPA -6.26 (log10 cm/s). The entry for CC(C)C[C@@H]1NC(=O)C[C@H](Cc2ccccc2)NC(=O)[C@@H]2CCCN2C(=O)[C@H](Cc2ccccc2)NC(=O)CN(Cc2ccccc2)C(=O)[C@@H]2CCCN2C(=O)[C@@H](CC(C)C)NC1=O lists PAMPA -5.73 (log10 cm/s). CC(C)C[C@@H]1NC(=O)[C@@H]2CCCN2C(=O)[C@H](CC(C)C)NC(=O)[C@@H](CC(C)C)NC(=O)[C@H](C)NC(=O)[C@H](Cc2ccccc2)NC1=O has PAMPA -6.49 (log10 cm/s). For CC(C)C[C@@H]1NC(=O)[C@@H](CC(C)C)NC(=O)C[C@H](Cc2ccccc2)NC(=O)[C@@H]2CCCN2C(=O)[C@H](Cc2ccccc2)NC(=O)[C@H](CC(C)C)N(C)C(=O)[C@@H]2CCCN2C1=O the data give PAMPA -5.65 (log10 cm/s).

Listed for CC(C)C[C@@H]1C(=O)N[C@H](CC(C)C)C(=O)N2CCC[C@@H]2C(=O)N(Cc2ccccc2)CC(=O)N[C@@H](Cc2ccccc2)C(=O)N2CCC[C@H]2C(=O)N[C@@H](C)C(=O)N1C: PAMPA -5.96 (log10 cm/s). CC(C)C[C@@H]1C(=O)N(Cc2ccccc2)CC(=O)N2CCC[C@H]2C(=O)N(Cc2ccccc2)CC(=O)N[C@@H](Cc2ccccc2)C(=O)N(C)[C@@H](C)C(=O)N1C has PAMPA -5.03 (log10 cm/s). For CC(C)C[C@@H]1NC(=O)[C@@H](CC(C)C)N(C)C(=O)[C@@H](C)N(C)C(=O)[C@H]2CCCN2C(=O)[C@H](Cc2ccccc2)NC(=O)[C@@H](CC(C)C)NC(=O)[C@H]2CCCN2C1=O the data give PAMPA -5.88 (log10 cm/s). For CC(C)C[C@@H]1C(=O)N[C@@H](Cc2ccccc2)CC(=O)N2CCC[C@H]2C(=O)N[C@H](CC(C)C)C(=O)N[C@@H](Cc2ccccc2)C(=O)N2CCC[C@H]2C(=O)N[C@@H](Cc2ccccc2)CC(=O)N1C the data give PAMPA -5.68 (log10 cm/s). Listed for CC(C)C[C@@H]1NC(=O)C[C@H](Cc2ccccc2)NC(=O)[C@H](Cc2ccccc2)NC(=O)[C@H](CC(C)C)NC(=O)[C@@H]2CCCN2C(=O)[C@H](CC(C)C)NC1=O: PAMPA -6.47 (log10 cm/s). For CCCN1CC(=O)N(C)[C@H](CC(C)C)C(=O)N(Cc2ccccc2)CC(=O)N2CCC[C@@H]2C(=O)N[C@H](CC(C)C)C(=O)N[C@@H](Cc2ccccc2)C(=O)N2CCC[C@@H]2C1=O the data give PAMPA -5.43 (log10 cm/s).

For CC(C)C[C@@H]1NC(=O)[C@H](CC(C)C)N(C)C(=O)[C@@H](C)N(C)C(=O)[C@H]2CCCN2C(=O)[C@H](Cc2ccccc2)NC(=O)CN(Cc2ccccc2)C(=O)[C@@H]2CCCN2C1=O the data give PAMPA -5.71 (log10 cm/s). CC(C)C[C@@H]1C(=O)N[C@@H](Cc2ccccc2)C(=O)N2CCC[C@@H]2C(=O)N[C@@H](C)C(=O)N(C)[C@@H](CC(C)C)C(=O)N(Cc2ccccc2)CC(=O)N2CCC[C@H]2C(=O)N1C has PAMPA -6.03 (log10 cm/s). Listed for CC(C)C[C@H]1C(=O)N(C)[C@@H](CC(C)C)C(=O)N2CCC[C@H]2C(=O)N(Cc2ccccc2)CC(=O)N[C@@H](Cc2ccccc2)C(=O)N2CCC[C@@H]2C(=O)N[C@@H](C)C(=O)N1C: PAMPA -5.81 (log10 cm/s). CC(C)C[C@@H]1NC(=O)[C@@H](CC(C)C)NC(=O)[C@@H](C)NC(=O)[C@H](Cc2ccccc2)NC(=O)CN(Cc2ccccc2)C(=O)[C@H]2CCCN2C1=O is reported with PAMPA -5.48 (log10 cm/s). CC(C)C[C@@H]1NC(=O)[C@@H](CC(C)C)NC(=O)[C@@H](C)N(C)C(=O)[C@H](Cc2ccccc2)NC(=O)CN(Cc2ccccc2)C(=O)[C@H]2CCCN2C1=O is reported with PAMPA -5.28 (log10 cm/s). Listed for CC(C)C[C@@H]1NC(=O)[C@H](C)N(C)C(=O)[C@@H]2CCCN2C(=O)[C@H](Cc2ccccc2)NC(=O)[C@@H](CC(C)C)NC(=O)[C@H]2CCCN2C(=O)CN(Cc2ccccc2)C1=O: PAMPA -5.77 (log10 cm/s).

The entry for CCCN1CC(=O)N(C)[C@H](CC(C)C)C(=O)N[C@H](CC(C)C)C(=O)N2CCC[C@@H]2C(=O)N[C@H](CC(C)C)C(=O)N[C@@H](Cc2ccccc2)C(=O)N2CCC[C@H]2C1=O lists PAMPA -6.26 (log10 cm/s). Listed for CC(C)C[C@H]1NC(=O)[C@@H](C)NC(=O)[C@@H]2CCCN2C(=O)[C@H](Cc2ccccc2)NC(=O)[C@@H](CC(C)C)NC(=O)[C@@H]2CCCN2C(=O)C[C@H](Cc2ccccc2)NC1=O: PAMPA -6.53 (log10 cm/s).

3 of these entries, quoted again:

compound	PAMPA (log10 cm/s)
CC(C)C[C@@H]1NC(=O)[C@H]2CCCN2C(=O)[C@H](CC(C)C)N(C)C(=O)[C@H](CC(C)C)NC(=O)[C@@H](C)N(C)C(=O)[C@H](Cc2ccccc2)NC1=O	-5.29
CC(C)C[C@@H]1NC(=O)[C@@H](CC(C)C)N(C)C(=O)[C@@H](C)N(C)C(=O)[C@H]2CCCN2C(=O)[C@H](Cc2ccccc2)NC(=O)[C@@H](CC(C)C)NC(=O)[C@H]2CCCN2C1=O	-5.88
CC(C)C[C@H]1NC(=O)[C@@H](C)NC(=O)[C@@H]2CCCN2C(=O)[C@H](Cc2ccccc2)NC(=O)[C@@H](CC(C)C)NC(=O)[C@@H]2CCCN2C(=O)C[C@H](Cc2ccccc2)NC1=O	-6.53

Values of Townsend et al. 2020, doi:10.26434/chemrxiv.13335941.v1, as listed in CycPeptMPDB.